Results reported in US7960404B2, “Spirocyclic cyclohexane compounds” (dated 2011).
Read-outs that look alike come from different tables or passages of the source.

By UniProt entry, the sequences of proteins in these tests, tags left out. Where a name states a change or a piece, a line headed by the entry shows the natural chain unless it says otherwise.
UniProt P41146: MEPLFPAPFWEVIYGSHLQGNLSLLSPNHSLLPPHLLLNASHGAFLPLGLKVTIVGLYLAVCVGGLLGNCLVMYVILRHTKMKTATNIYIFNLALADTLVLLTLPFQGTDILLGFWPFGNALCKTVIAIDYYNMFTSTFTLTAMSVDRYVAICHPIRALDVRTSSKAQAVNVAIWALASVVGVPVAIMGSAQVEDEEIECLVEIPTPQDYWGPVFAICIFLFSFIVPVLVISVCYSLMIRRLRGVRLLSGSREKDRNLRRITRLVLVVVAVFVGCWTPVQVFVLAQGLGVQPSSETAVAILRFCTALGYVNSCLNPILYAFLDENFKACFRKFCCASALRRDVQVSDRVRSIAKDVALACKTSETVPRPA
UniProt P35372, whole entry, looked up: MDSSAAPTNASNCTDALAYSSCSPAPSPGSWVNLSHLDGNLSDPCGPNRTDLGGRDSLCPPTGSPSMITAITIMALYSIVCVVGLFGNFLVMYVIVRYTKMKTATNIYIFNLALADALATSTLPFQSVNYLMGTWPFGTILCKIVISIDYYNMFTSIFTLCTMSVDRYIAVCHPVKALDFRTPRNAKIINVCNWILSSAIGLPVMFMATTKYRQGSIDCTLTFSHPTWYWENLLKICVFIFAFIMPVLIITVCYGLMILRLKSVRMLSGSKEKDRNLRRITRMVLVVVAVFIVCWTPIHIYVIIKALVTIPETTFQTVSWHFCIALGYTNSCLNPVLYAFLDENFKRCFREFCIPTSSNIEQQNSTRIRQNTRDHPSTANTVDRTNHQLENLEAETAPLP

Assays:
ORL1 receptor = ORL1 receptor (Homo sapiens, UniProt P41146); assay: ORL1 receptor binding assay with 3H-nociceptin/orphanin FQ (SPA)
human μ-opiate receptor = human μ-opiate receptor (Homo sapiens, UniProt P35372); assay: μ-opiate receptor binding assay with [3H] naloxone (SPA)
[1] = Metabolic stability, incubation with human liver microsomes; settings: for Conversion rate for human microsomes (300 pmol/ml): substrate 1 μmol/l, 37° C.
[2] = Microsomal biotransformation / metabolite formation, general statements
[3] = Metabolic stability, incubation with mouse liver microsomes; settings: substrate 1 μmol/l, 37° C.
[4] = read-out: Ki (ORL1) mean, series R3=phenyl, R8=F, X=O
[5] = read-out: Ki (μ) mean, series R3=phenyl, R8=F, X=O

## Fc1cccc(C2(N3CCC3)CCC3(CC2)OCCc2c3[nH]c3ccccc23)c1 (stereo not drawn)
ORL1 receptor; read-out: Ki (ORL1)
  Ki: 4.8 nM
Human μ-opiate receptor; read-out: Ki (μ)
  Ki: 2 nM

## Fc1ccc2[nH]c3c(c2c1)CCOC31CCC(Nc2ccccc2)(c2ccccc2)CC1 (stereo not drawn)
ORL1 receptor; series R3=phenyl, R8=F, X=O
  % inhibition (ORL1) [1 μM]: −8%
ORL1 receptor; [4]
  Ki: 2900 nM
Human μ-opiate receptor; series R3=phenyl, R8=F, X=O
  % inhibition (μ) [1 μM]: −16%
Human μ-opiate receptor; [5]
  Ki: 6940 nM

## NC1(Cc2ccccc2)CCC2(CC1)OCCc1c2[nH]c2ccc(F)cc12 (stereo not drawn)
ORL1 receptor; series R3=benzyl, R8=F, X=O
  % inhibition (ORL1) [1 μM]: 27%
Human μ-opiate receptor; series R3=benzyl, R8=F, X=O
  % inhibition (μ) [1 μM]: 90%

## CCCCC1(N2CCCC2)CCC2(CC1)OCCc1c2[nH]c2ccc(F)cc12.O=C(O)CC(O)(CC(=O)O)C(=O)O (stereo not drawn)
ORL1 receptor; series R3=n-butyl, R8=F, X=O
  % inhibition (ORL1) [1 μM]: 47%
Human μ-opiate receptor
  affinity for the μ-opioid receptor (in words): very high affinity
Human μ-opiate receptor; series R3=n-butyl, R8=F, X=O
  % inhibition (μ) [1 μM]: 94%

## COc1ccc(CNC2(Cc3ccccc3)CCC3(CC2)OCCc2c3[nH]c3ccc(F)cc23)cc1 (stereo not drawn)
ORL1 receptor; series R3=benzyl, R8=F, X=O
  % inhibition (ORL1) [1 μM]: 49%
Human μ-opiate receptor; read-out: Ki (μ), series R3=benzyl, R8=F, X=O
  Ki: 1200 nM

## N-{6′-Fluoro-4′,9′-dihydro-4-phenylspiro[cyclohexane-1,1′(3′H)-pyrano[3,4-b]indol]-4-yl}-pyrrolidine, 2-hydroxy-1,2,3-propanetricarboxylate (2:1)
[1]; human liver microsomes
  conversion with human microsomes (in words): particularly low conversion rates
[1]; human microsomes, rate as % of V-1
  conversion rate as share of that of V-1: around 30%
[1]
  Conversion rate for human microsomes (300 pmol/ml): 0.0105 nmol/min/nmol P450
ORL1 receptor; series R3=phenyl, R8=F, X=O
  % inhibition (ORL1) [1 μM]: 56%
ORL1 receptor; [4]
  Ki: 383 nM
[2]
  formation of the N-demethyl metabolite: do not form the N-demethyl metabolite
Human μ-opiate receptor; series R3=phenyl, R8=F, X=O
  % inhibition (μ) [1 μM]: 98%
Human μ-opiate receptor; [5]
  Ki: 1.8 nM
[3]
  Conversion rate for mouse microsomes (300 pmol/ml): 0.0200 nmol/min/nmol P450

## Fc1ccc2[nH]c3c(c2c1)CCOC31CCC(c2cccs2)(N2CCC2)CC1 (stereo not drawn)
ORL1 receptor; read-out: Ki (ORL1)
  Ki: 6.6 nM
Human μ-opiate receptor; read-out: Ki (μ)
  Ki: 4.8 nM

## CN(C)C1(c2ccccc2)CCC2(CC1)OCCc1c2[nH]c2ccc(F)cc12 (stereo not drawn)
[1]
  Conversion rate for human microsomes (300 pmol/ml): 0.0300 nmol/min/nmol P450
ORL1 receptor; series R3=phenyl, R8=F, X=O
  % inhibition (ORL1) [1 μM]: 99%
ORL1 receptor; [4]
  Ki: 3.2 nM
Human μ-opiate receptor; series R3=phenyl, R8=F, X=O
  % inhibition (μ) [1 μM]: 86%
Human μ-opiate receptor; [5]
  Ki: 2.7 nM
[3]
  Conversion rate for mouse microsomes (300 pmol/ml): 0.0255 nmol/min/nmol P450

## c1ccc(C2(N3CCCC3)CCC3(CC2)OCCc2c3[nH]c3ccccc23)cc1 (stereo not drawn)
ORL1 receptor; series R3=phenyl, R8=H, X=O
  % inhibition (ORL1) [1 μM]: 61%
ORL1 receptor; read-out: Ki (ORL1) mean [μm], series R3=phenyl, R8=H, X=O
  Ki: 110 nM
Human μ-opiate receptor; read-out: Ki (μ) mean [μm], series R3=phenyl, R8=H, X=O
  Ki: 9.8 nM

## Fc1ccc2[nH]c3c(c2c1)CCOC31CCC(c2ccccc2)(N2CCCCC2)CC1 (stereo not drawn)
ORL1 receptor; series R3=phenyl, R8=F, X=O
  % inhibition (ORL1) [1 μM]: 0%
Human μ-opiate receptor; series R3=phenyl, R8=F, X=O
  % inhibition (μ) [1 μM]: 17%
Human μ-opiate receptor; [5]
  Ki: 737 nM

## CN1CCN(C2(c3ccccc3)CCC3(CC2)OCCc2c3[nH]c3ccc(F)cc23)CC1 (stereo not drawn)
ORL1 receptor; series R3=phenyl, R8=F, X=O
  % inhibition (ORL1) [1 μM]: 76%
Human μ-opiate receptor; series R3=phenyl, R8=F, X=O
  % inhibition (μ) [1 μM]: 65%
Human μ-opiate receptor; [5]
  Ki: 1410 nM
